This series deals with Vero cells. Kind of series: Cytotoxicity, CellGlo Cell Viability assay. As to conditions: read-out: CC50 ± SD, 24 h.

The structures appear in SMILES notation.

On to `CC(OC(C)(C)C)C(NC(=O)C(CSC(C)(C)C)NC(=O)C(CCC(=O)OC(C)(C)C)NC(=O)OCC1c2ccccc2-c2ccccc21)C(=O)O` (stereo not shown), for which the CC50 is above 100 µM.

(Values after paper PMC5735092 (Scientific Reports, 2017).)
